Target: PDE4B1-S133D (Homo sapiens, UniProt Q07343, S133D/S659A/S661A)
Experiment: PDE4 coupled enzyme assay of cAMP hydrolysis, PDE4B1-S133D
Format: biochemical
Conditions: mean ± SD

Amino acid sequences for entries named in this document (tags omitted).
UniProt Q07343, whole entry S133D/S659A/S661A: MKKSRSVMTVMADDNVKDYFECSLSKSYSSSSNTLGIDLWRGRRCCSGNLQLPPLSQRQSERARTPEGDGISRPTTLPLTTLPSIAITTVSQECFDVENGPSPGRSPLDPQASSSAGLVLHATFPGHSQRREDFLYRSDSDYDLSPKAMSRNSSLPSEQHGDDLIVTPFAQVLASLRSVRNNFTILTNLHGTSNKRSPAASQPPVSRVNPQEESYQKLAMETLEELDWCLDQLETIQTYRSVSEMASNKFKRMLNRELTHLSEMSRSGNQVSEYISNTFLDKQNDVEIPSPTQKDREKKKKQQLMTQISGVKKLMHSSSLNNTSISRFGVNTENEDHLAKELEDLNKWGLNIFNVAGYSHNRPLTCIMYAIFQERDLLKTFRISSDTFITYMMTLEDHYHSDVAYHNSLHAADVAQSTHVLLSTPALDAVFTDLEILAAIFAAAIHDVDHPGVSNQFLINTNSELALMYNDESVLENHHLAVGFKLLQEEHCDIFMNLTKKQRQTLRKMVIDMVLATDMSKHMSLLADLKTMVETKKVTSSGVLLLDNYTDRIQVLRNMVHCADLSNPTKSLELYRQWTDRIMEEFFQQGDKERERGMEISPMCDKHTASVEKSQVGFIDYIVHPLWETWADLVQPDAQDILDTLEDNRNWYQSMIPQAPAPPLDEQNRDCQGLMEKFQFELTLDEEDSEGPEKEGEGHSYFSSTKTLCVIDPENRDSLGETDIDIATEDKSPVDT

CCOc1cc([C@@H](CS(C)(=O)=O)N2C(=O)c3cccc(NC(C)=O)c3C2=O)ccc1OC [30 (apremilast), apremilast, reference compound]
Hill Slope PDE4B1-S133D dimer activated: 1.0 ± 0.05

Reference: PMC7444661 (Journal of medicinal chemistry, 2019)
